scFv variants of Ab-14 (heavy chain) against a SARS-CoV-2 spike peptide

Antigen: PDVDLGDISGINAS, a 14-residue peptide of the SARS-CoV-2 spike HR2 region.

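The starting antibody came from a phage panning campaign against this peptide. Designed CDR sequences, proposed from the first random library and measured here. Several design methods are mixed in this list. AlphaSeq pools MATa yeast showing the antibodies with MATalpha yeast showing the peptide. After mating in shaken culture at 30 °C for 16 h, diploids were selected and their barcode pairs sequenced. Scores were corrected for input abundance and mapped to Kd with protein pairs of known affinity run in the same pool. Mating was done six times.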

Parent scFv Ab-14: VH joined to VL by the linker GGGGSGGGGSGGGGS. Changes lie in the heavy chain CDRs alone.
VH: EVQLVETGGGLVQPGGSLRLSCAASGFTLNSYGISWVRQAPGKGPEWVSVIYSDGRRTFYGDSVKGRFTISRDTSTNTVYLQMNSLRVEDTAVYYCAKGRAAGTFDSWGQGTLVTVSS
VL: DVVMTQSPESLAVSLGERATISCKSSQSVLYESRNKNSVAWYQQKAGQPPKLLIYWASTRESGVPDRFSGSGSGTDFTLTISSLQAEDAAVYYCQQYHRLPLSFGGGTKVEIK

Variants are written as CDR1, CDR2 and CDR3 of the heavy chain (limits as in the source). Parent: GFTLNSYGIS, VIYSDGRRTFYGDSVK, GRAAGTFDS.
Variants here have more than six changes.
Kd is apparent (estimated from mating counts) and averaged on the log scale over replicates with a signal. Smaller is tighter.
A pair that was not seen in any replicate is written "nd"; this usually means weak binding, but a binder can also be missed.
The authors' rule: three or more of the six replicates give a measured affinity, fewer mean a poor binder.

Variant GFDLNEYGIS / VIYADGQRTAYIDSVK / GENAGTFDV gave 760 pM (6 of 6 replicates; controls 0 of 18). With GFDLNEYGIS / VIYADGMRTAYADDVK / GNEAGTFDV the result was 330 pM (6 of 6 replicates; controls 0 of 18). Variant GFDLNEYGIS / VIYADGMRTSYADSVK / GQNAGTFDM showed 1.5 nM (6 of 6 replicates; controls 1 of 18). For GFDLNEYGIS / VIYADGKRTAYSDSVK / GEAGGTFDS, the assay gave 670 pM (6 of 6 replicates; controls 0 of 18). Variant GFDLDEYGIS / VIYADGMRTAYADSVK / GGVAGTFDV gave 680 pM (6 of 6 replicates; controls 0 of 18).

Variant GFDLNEYGIS / VIYADGKRTFYSDSVK / GNAGGTFDQ gave 8.0 nM (4 of 6 replicates; controls 0 of 18). For GFNLNEYGIS / VIYADGRRSFYSDSVK / GETAGTFDV, the assay gave 1.4 nM (6 of 6 replicates; controls 0 of 18). With GFHLDEYGIS / VIYADGKRSVYTNDVK / GELQLGFVI the result was nd (0 of 6 replicates; controls 0 of 18). For GFDLNEYGIS / VIYADGMRTAYADSVK / GEEAGTFDV, the assay gave 12 nM (6 of 6 replicates; controls 0 of 18). Variant GFDLNEYGIS / VIYADGKRTAYSDSVK / GEVAGTFDT gave 530 pM (6 of 6 replicates; controls 0 of 18).

Variant GFDLDEYGIS / VIYADGSRTAYADSVK / GSNAGTFDV showed nd (0 of 6 replicates; controls 0 of 18). With GFDLNEYGIS / VIYADGQRTFYADSVK / GTAAGTFDQ the result was 380 pM (6 of 6 replicates; controls 1 of 18). Variant GFDLNEYGIS / VIYADGMRTYYTESVK / GNIFDQLFV showed 23 nM (1 of 6 replicates; controls 0 of 18). With GFDLNEYGIS / VIYADGMRTAYADSVK / GNVAGTFDD the result was 1.1 nM (6 of 6 replicates; controls 0 of 18). For GFDLNEYGIS / VIYADGKRTAYADSVK / GSNAGTFDQ, the assay gave 380 pM (6 of 6 replicates; controls 0 of 18).

Variant GFDLNEYGIS / VIYADGKRTAYADSVK / GQAAGTFDS showed 480 pM (6 of 6 replicates; controls 0 of 18). Variant GFDVDEYGIS / VIYADGKRSMYANKVK / GHIGGMMFV gave nd (0 of 6 replicates; controls 0 of 18). Variant GFDLDEYGIS / VIYADGRRTAYADSVK / GNNAGTFDL showed 140 pM (6 of 6 replicates; controls 1 of 18). For GFDLEDYGIS / VIYADGKRSFVSNSVK / GQLGNAFSM, the assay gave nd (0 of 6 replicates; controls 0 of 18). For GFSLDEYGIS / VIYADGRRTFYSDSVK / GSTAGTFDV, the assay gave 700 pM (6 of 6 replicates; controls 0 of 18).

With GFDLNEYGIS / VIYADGQRTFYADSVK / GETAGTFDV the result was 220 pM (6 of 6 replicates; controls 0 of 18). Variant GFDLNEYGIS / VIYADGQRTAYVDSVK / GNVAGTFDQ showed 180 pM (6 of 6 replicates; controls 1 of 18). Variant GFDIEEYGIS / VIYADGVRTAYSQNFK / VGNTFDLDI showed 39 nM (1 of 6 replicates; controls 1 of 18). Variant GFDINEYGIS / VIYADGMRTAYSDSVK / GENAGTFDV gave 420 pM (6 of 6 replicates; controls 1 of 18). With GFDLNEYGIS / VIYADGMRTQYADSVK / GENAGTFDV the result was 1.2 nM (6 of 6 replicates; controls 0 of 18).

Variant GFFLNSYGRS / VIGADGRRTFYGDSGK / GRAAGTNKS gave nd (0 of 6 replicates; controls 0 of 18). Variant GGNLDEYGIS / VIYADGKRRQYVDDVK / GSHADMFIM showed nd (0 of 6 replicates; controls 0 of 18). For GFDLEDYGIS / VIYADGRRTFYADSVK / GNVAGTFIL, the assay gave 11 nM (6 of 6 replicates; controls 0 of 18). Variant GRTLNEYGIS / VIYADGRRTFYGDSVR / NKEAGTFDS gave nd (0 of 6 replicates; controls 1 of 18). Variant GFDLNEYGIS / VIYADGKRTFYSDSVK / GNVAGTFDI gave 2.0 nM (5 of 6 replicates; controls 0 of 18).

Variant GFDLEEYGIS / VIYADGMRTAYADNVK / GNVAGTFDV gave 1.4 µM (2 of 6 replicates; controls 1 of 18). For GFDLNEYGIS / VIYADGMRKFYADSVK / GENAGTFDV, the assay gave 410 pM (6 of 6 replicates; controls 0 of 18). For GFDLNEYGVS / VIYADGYRASYADKVK / GFNFGQDIV, the assay gave nd (0 of 6 replicates; controls 1 of 18). Variant GFHLDEYGIS / VIYADGMRTQYDQNVK / GGIRAYFDG showed nd (0 of 6 replicates; controls 0 of 18). Variant GFDLNEYGIS / VIYADGMRTAYADKVK / GNTAGTFDQ gave 180 pM (6 of 6 replicates; controls 0 of 18).

Variant GFDLNEYGIS / VIYADGKRTFYSDSVK / GNAGGTFDI showed 3.0 nM (6 of 6 replicates; controls 0 of 18). Variant GFDLNEYGIS / VIYADGRRTQYIDSVK / GEIAGTFDN gave 14 nM (6 of 6 replicates; controls 0 of 18). With GFDLNEYGIS / VIYADGRRTAYTDSVK / GQLAGTFDS the result was 320 pM (6 of 6 replicates; controls 0 of 18). For GFVLQEYGIS / VIYADGMRTAYAEDFK / GLTGGNLHI, the assay gave nd (0 of 6 replicates; controls 0 of 18). For GFEVDEYGIS / VIYADGKRSMYANKFK / GHIAGMMFV, the assay gave nd (0 of 6 replicates; controls 0 of 18).

Variant GFVLEEYGIS / VIYADGMRTAYAEDFK / GQTGGNFHH showed nd (0 of 6 replicates; controls 0 of 18). With GENLDEYGIS / VIYADGVREAYANNVK / GEQGSFFIT the result was nd (0 of 6 replicates; controls 0 of 18). Variant GFSLGEYGIS / VIYADGVRRSYADKVK / GKNGAISSV gave nd (0 of 6 replicates; controls 0 of 18). With GFDLDEYGIS / VIYADGMRTAYADSVK / GQNAGTFDV the result was 510 pM (6 of 6 replicates; controls 1 of 18). With GFDLNEYGIS / VIYADGRRTSYSDSVK / GEAAGTFDV the result was 3.4 nM (6 of 6 replicates; controls 0 of 18).

Variant GFDLNEYGIS / VIYADGRRTAYTDSVK / GVEAGTFDL gave nd (0 of 6 replicates; controls 1 of 18).

Repeated from above, the 7 best binders with a signal in all replicates:

CDR-H1	CDR-H2	CDR-H3	apparent Kd	detected	control signals
GFDLDEYGIS	VIYADGRRTAYADSVK	GNNAGTFDL	140 pM	6/6	1/18
GFDLNEYGIS	VIYADGMRTAYADKVK	GNTAGTFDQ	180 pM	6/6	0/18
GFDLNEYGIS	VIYADGQRTAYVDSVK	GNVAGTFDQ	180 pM	6/6	1/18
GFDLNEYGIS	VIYADGQRTFYADSVK	GETAGTFDV	220 pM	6/6	0/18
GFDLNEYGIS	VIYADGRRTAYTDSVK	GQLAGTFDS	320 pM	6/6	0/18
GFDLNEYGIS	VIYADGMRTAYADDVK	GNEAGTFDV	330 pM	6/6	0/18
GFDLNEYGIS	VIYADGQRTFYADSVK	GTAAGTFDQ	380 pM	6/6	1/18

A sequence measured in both rounds can read differently, since the two assays cover different ranges.
Background: pairings of all heavy chain designs with three empty control strains gave a value in 1% of cases (median 120 nM, 5th percentile 7.0 nM). Values in that range, when seen in few replicates, are hard to tell from nonspecific mating. Also given: how often the same scFv was detected with the empty control strains.

Reference: Li et al. 2023, doi:10.1038/s41467-023-39022-2. File: FLAb, binding data.